# Results from paper PMC2099187 (The Journal of Cell Biology, 2007).
# Amino acid sequences for entries named in this document (tags omitted). Residues count along the entry.
# UniProt Q63118, 24-464: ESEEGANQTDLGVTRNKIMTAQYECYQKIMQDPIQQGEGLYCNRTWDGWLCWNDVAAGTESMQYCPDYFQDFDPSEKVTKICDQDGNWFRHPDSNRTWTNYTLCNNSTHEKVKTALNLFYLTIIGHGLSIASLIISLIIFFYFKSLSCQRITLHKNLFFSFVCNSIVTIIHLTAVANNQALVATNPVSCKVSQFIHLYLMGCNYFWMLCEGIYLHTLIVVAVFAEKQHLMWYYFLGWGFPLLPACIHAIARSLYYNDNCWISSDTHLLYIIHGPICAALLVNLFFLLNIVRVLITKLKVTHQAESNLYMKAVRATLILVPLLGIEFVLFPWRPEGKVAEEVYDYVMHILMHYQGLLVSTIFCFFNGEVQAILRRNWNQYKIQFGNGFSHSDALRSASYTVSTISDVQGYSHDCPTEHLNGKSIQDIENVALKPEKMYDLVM
# UniProt Q9JJ74, 27-148: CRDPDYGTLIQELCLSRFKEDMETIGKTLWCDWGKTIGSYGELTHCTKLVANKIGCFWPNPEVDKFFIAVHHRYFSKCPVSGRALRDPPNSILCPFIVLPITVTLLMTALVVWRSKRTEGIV
# Molecular target: CLR/RAMP1 (Rattus norvegicus, UniProt Q63118+Q9JJ74)
# Test: pH dependency of 125I-CGRP binding to CLR/RAMP1 membranes
# Details: 4°C, relative to pH 7.5 (100%)
substance,measurement,setting,value
^125I-His^8-CGRP: ^125I-His^8 human CGRP from GE Healthcare,Reduction of specific binding at pH 5.5,"MES buffer pH 5.5, 90 min",> 75%
same,Reduction of specific binding at pH 6.0,"MES buffer pH 6.0, 90 min",> 30%
